## Apparent affinities of Ab-14 variants for a coronavirus HR2 peptide

All variants were tested on one target, the spike HR2 peptide PDVDLGDISGINAS (SARS-CoV-2).

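The starting antibody came from a phage panning campaign against this peptide. This is the validation round: designs drawn from the data on random variants, tested in the same kind of assay. Several design methods are mixed in this list. In AlphaSeq, yeast of one mating type display the scFv and yeast of the other type display the target. After mating in shaken culture at 30 °C for 16 h, diploids were selected and their barcode pairs sequenced. A regression on co-assayed BCL2-family reference pairs converts the normalised counts of each replicate to an apparent Kd. There are six technical replicates.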

Ab-14 is the parent antibody, in scFv form: VH, then three GGGGS repeats, then VL. The light chain is unchanged in all variants.
VH: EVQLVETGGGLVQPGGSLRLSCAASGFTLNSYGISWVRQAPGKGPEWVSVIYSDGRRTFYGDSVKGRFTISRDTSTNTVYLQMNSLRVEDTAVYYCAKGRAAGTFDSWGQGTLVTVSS
VL: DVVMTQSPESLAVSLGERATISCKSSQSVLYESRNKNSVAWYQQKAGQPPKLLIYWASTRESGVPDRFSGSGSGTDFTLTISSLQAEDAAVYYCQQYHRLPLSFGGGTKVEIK

The parent's heavy chain CDRs are GFTLNSYGIS, VIYSDGRRTFYGDSVK, GRAAGTFDS; each variant's own CDRs replace them letter for letter.
This list holds designs with at most six substitutions.
The Kd shown is the geometric mean over detected replicates; a lower Kd is a better binder.
Where no diploid with the target was found in any replicate, the entry reads "no signal": below detection, most likely a poor binder, though not proof of it.
Order: sorted from the lowest average up, undetected variants last.
The parent sequence was in this pool as ten entries: three were never detected, three once, and four in most replicates, with averages from 2.2 nM to 240 nM.

HFTLNSYGIS, VIYSDGRRTFYIDSVK, GRIAGTFDS: 240 pM (6 of 6 replicates; controls 0 of 18).
GFELNEYGIS, VIYSDGHRTFYGDSVK, GRTAGTFDS: 300 pM (6 of 6 replicates; controls 0 of 18).
GFSLNEYGIS, VIYSDGRRTAYGDSVK, GRAAGTFDS: 470 pM (12 of 12 replicates; controls 0 of 36).
GFTLNEYGIS, VIYSDGRRTFYGDSVK, GREAGTFDI: 480 pM (6 of 6 replicates; controls 0 of 18).
GFTLNEYGIS, VIYSDGRRTFYADSVK, GRNAGTFDT: 540 pM (6 of 6 replicates; controls 1 of 18).
GFELNSYGIS, VIYSDGRRTFYSDDVK, GRTAGTFDS: 590 pM (6 of 6 replicates; controls 1 of 18).
GFTLQDYGIS, VIYADGRRTFYGDSVK, GRSAGTFDS: 620 pM (6 of 6 replicates; controls 0 of 18).
GFDLNEYGIS, VIYADGRRTFYADSVK, GNAAGTFDE: 860 pM (6 of 6 replicates; controls 0 of 18).
GFSLNEYGIS, VIYSDGKRTFYADSVK, GRAAGTFDS: 880 pM (6 of 6 replicates; controls 1 of 18).
GFDLNSYGIS, VIYSDGRRTFYGDSVK, GRTAGTFDL: 1.0 nM (5 of 6 replicates; controls 1 of 18).
GFDLNSYGIS, VIYSDGRRTFYADSVK, GRTAGTFDT: 1.1 nM (6 of 6 replicates; controls 0 of 18).
YFDLNSYGIS, VIYSDGRRTFYGDSVK, GQTAGTFDS: 1.2 nM (6 of 6 replicates; controls 1 of 18).
GFDLNSYGIS, VIYSDGRRTFYGDSVK, GHAAGTFDV: 1.6 nM (6 of 6 replicates; controls 0 of 18).
GFELNEYGIS, VIYSDGRRTFYQDSVK, GRTAGTFDS: 1.7 nM (6 of 6 replicates; controls 0 of 18).
GFTLNSYGIS, VIYSDGFRTFYLDSVK, GNAAGTFDS: 2.6 nM (6 of 6 replicates; controls 0 of 18).
GFVLNEYGIS, VIYSDGRRTFYDDSVK, GRTAGTFDS: 2.8 nM (6 of 6 replicates; controls 1 of 18).
GFHLNDYGIS, VIYSDGRRTWYGDSVK, GRAAGTFDS: 2.8 nM (6 of 6 replicates; controls 1 of 18).
GFDLNSYGIS, VIYSDGKRTFYGDNVK, GRTAGTFDS: 3.2 nM (6 of 6 replicates; controls 0 of 18).
GFDLNSYGIS, VIYSDGRRTFYGDSVK, GNTAGTFDS: 3.5 nM (6 of 6 replicates; controls 0 of 18).
GFTLESYGIS, VIYSDGKRTFYGDKVK, GRTAGTFDS: 3.9 nM (6 of 6 replicates; controls 0 of 18).
GFDLNSYGIS, VIYSDGRRTFYGDQVK, GQTAGTFDD: 4.3 nM (6 of 6 replicates; controls 0 of 18).
GFSLESYGIS, VIYSDGRRTFYGDSVK, GRAAGTFDS: 4.7 nM (6 of 6 replicates; controls 0 of 18).
GFSLNSYGIS, VIYSDGRRTFYTDSVK, GVAAGTFDS: 5.2 nM (6 of 6 replicates; controls 0 of 18).
GFQLNSYGIS, VIYSDGRRTFYKDSVK, GRTAGTFDS: 5.2 nM (6 of 6 replicates; controls 0 of 18).
GFDLNSYGIS, VIYSDGRRTFYGDRVK, GKTAGTFDS: 5.4 nM (6 of 6 replicates; controls 0 of 18).
GFKLNEYGIS, VIYSDGRRTQYGDSVK, GRAAGTFDS: 6.1 nM (4 of 6 replicates; controls 0 of 18).
YFSLNEYGIS, VIYSDGRRTFYGDSVK, GREAGTFDS: 6.3 nM (4 of 6 replicates; controls 0 of 18).
GFTLNQRGIS, VIYSDGRRTCYSDSVK, GRAAGFFDS: 6.4 nM (1 of 6 replicates; controls 0 of 18).
KFELNSYGIS, VIYSDGRRTFYSDSVK, GRTAGTFDS: 6.7 nM (6 of 6 replicates; controls 0 of 18).
GFTLNSYGIS, VIYSDGRRTFYSDQVK, GEAAGTFDS: 13 nM (6 of 6 replicates; controls 0 of 18).
GFNLNEYGIS, VIYSDGRRTFYADSVK, GRDAGTFDS: 14 nM (6 of 6 replicates; controls 0 of 18).
GFTLNSYGIS, VIYSDGRRTFYGDSVK, GQTAGTFDV: 14 nM (4 of 6 replicates; controls 0 of 18).
GFSLNSYGIS, VIYSDGRRTFYVDSVK, GMLAGTFDS: 20 nM (6 of 6 replicates; controls 1 of 18).
GFTLNSYGIS, VIYSDGRRTFYSDSVK, GRAAFTFDS: 36 nM (2 of 6 replicates; controls 1 of 18).
GFTLNEYGIS, VIYSDGRRTFYSDSVK, GRFAGTFDS: 58 nM (6 of 6 replicates; controls 0 of 18).
GFTLNSYGIS, VIYSDGRRTFYIDSVK, GQVAGTFDT: 58 nM (1 of 6 replicates; controls 0 of 18).
GDTLNSYGIS, VIYSDGRRTFYGDSVK, GRAAGTFPS: 120 nM (5 of 6 replicates; controls 1 of 18).
GFCLNDYGIS, VIYSDGRRTFYGDSVK, GTAAGTFDS: 120 nM (6 of 6 replicates; controls 1 of 18).
GQTLNSYGIS, VIYSDGRRTFYQDSVK, GRAAGTFDS: 150 nM (4 of 6 replicates; controls 1 of 18).
DFDLNSYGIS, VIYSDGRRTFYDGSVK, GRAAGTFDS: 310 nM (3 of 6 replicates; controls 0 of 18).
GFTLNSYGIS, VIYSDGRRTFYIDSVK, GGAAGYFSS: 410 nM (1 of 6 replicates; controls 0 of 18).
GFMLNSYGIS, VIYSDGRRTFYGDSVK, GYAAGTFDS: no signal (0 of 6 replicates; controls 0 of 18).
NFTLESYGIS, VIYADGRRTFYGDSVK, GRAAGTFTS: no signal (0 of 6 replicates; controls 0 of 18).
GFTLNEYGIS, VIYSDGRRTFYGDSVK, GRAAVTFCQ: no signal (0 of 6 replicates; controls 0 of 18).
GFNLNSYGIS, VIYSDGRRTFYIDSVS, GRAAWTFDS: no signal (0 of 6 replicates; controls 0 of 18).
GFTLNDYGIS, VIYSDGRRLFYLDSVK, GRAALTFIS: no signal (0 of 6 replicates; controls 0 of 18).
GFTLNSYGIS, VIYSDGRRTFYQDSVK, GRAAINFDS: no signal (0 of 6 replicates; controls 0 of 18).
GFTLNSYGIS, VIYSDGWRTFYVDSVK, GWEAGTFDL: no signal (0 of 6 replicates; controls 1 of 18).
GFTLNDYGIS, VIYSDGRRTFYSDSFK, GGAYGKFDS: no signal (0 of 6 replicates; controls 0 of 18).
GFTLNEYGIS, VIYSNGRRTFYGDSVK, GRAAVTFDQ: no signal (0 of 6 replicates; controls 0 of 18).

The closing 8 entries, repeated:

CDR-H1	CDR-H2	CDR-H3	apparent Kd	seen in	empty controls
NFTLESYGIS	VIYADGRRTFYGDSVK	GRAAGTFTS	no signal	0/6	0/18
GFTLNEYGIS	VIYSDGRRTFYGDSVK	GRAAVTFCQ	no signal	0/6	0/18
GFNLNSYGIS	VIYSDGRRTFYIDSVS	GRAAWTFDS	no signal	0/6	0/18
GFTLNDYGIS	VIYSDGRRLFYLDSVK	GRAALTFIS	no signal	0/6	0/18
GFTLNSYGIS	VIYSDGRRTFYQDSVK	GRAAINFDS	no signal	0/6	0/18
GFTLNSYGIS	VIYSDGWRTFYVDSVK	GWEAGTFDL	no signal	0/6	1/18
GFTLNDYGIS	VIYSDGRRTFYSDSFK	GGAYGKFDS	no signal	0/6	0/18
GFTLNEYGIS	VIYSNGRRTFYGDSVK	GRAAVTFDQ	no signal	0/6	0/18

In the paper, a design with two or fewer of six values counts as a poor binder.
Where one sequence has several entries in the source, the replicates are pooled.
Three control strains display no target. For all heavy chain designs, 1% of the pairings with them gave a signal, with a median of 120 nM and one signal in twenty below 7.0 nM, so weak values seen in few replicates may be background. Also given: how often the same scFv was detected with the empty control strains.
Values of this round are not directly comparable with the first-round values of the same sequences.

Values reported by Li et al. 2023, doi:10.1038/s41467-023-39022-2 (FLAb copy).